# Data taken from US7183251B1, “hCG therapy for the treatment of breast cancer” (Fox Chase Cancer Center, priority 1998, dated 2007).
# Columns and labels:
# metastatic breast cancer = test: Open-label study of r-hCG in metastatic breast cancer in postmenopausal women; type: in vivo, human
# Excerpt: The primary objective of this study was to assess the effect of r-hCG on the tumor response rate of bi-dimensionally measurable or palpable lesions. The secondary objectives were: i.) to assess the effect of r-hCG treatment on symptoms caused by metastatic breast tumor lesions, ii.) to determine whether r-hCG exerts any adverse systemic effects, iii.) to measure time to tumor progression and, iv.) to determine the effects of r-hCG on endocrinology parameters and tumor markers.
# Thirteen postmenopausal women diagnosed with biopsy-proven breast cancer and clinical evidence of metastatic disease were entered in the study. Patients are treated with 500 mcg of r-hCG three times per week for at least two months. Tumor assessment and measurement of target indicator lesions are performed every two months by X-ray, CT scan, MRI or physical examination. After 60 days of treatment, a re-evaluation of metastatic lesions is performed using the same diagnostic procedure(s). In the event of disease progression (i.e., appearance of new tumor or growth of indicator lesions by at least 25% in square dimensions) study treatment is discontinued, otherwise, treatment is continued, with patient re-evaluations every eight weeks, until progressive disease is noted.
# inhibin = test: r-hCG in primary breast cancer: immunostaining for inhibin; type: in vivo, human; conditions: 2-week r-hCG treatment
# Excerpt: Hormonal Treatment: Dose and Schedule. The patients selected for this study received intramuscularly (IM) 10,000 units of the experimental drug, recombinant human chorionic gonadotropin on days 1, 3, 5, 7, 9, 11 and 13. The lyophilysate was reconstituted with normal physological saline immediately before injection in the gluteus. The controls were blinded and received IM injections of placebo. At each injection the patients were seen and informed about there concurrent medication and possible side effects. Treatment was double blind with 20 active sets and 5 controls. No dose modification was allowed. […] The efficacy of treatment was assessed by evaluating in the residual tumor resected by lumpectomy or mastectomy at the end of the two-week r-hCG treatment the same parameters evaluated in the initial core needle biopsies.
# Surrogate Marker Analysis. The effects of r-hCG on the breast tumors was evaluated by using immunocytochemistry, performed in both core biopsies of the tumor and in residual tumor present in lumpectomy or mastectomy specimens. The following surrogate markers were evaluated using immunocytochemistry: Rate of cell proliferation, percentage of cells positive for estrogen (ER) and progesterone receptors (PgR) and immunoreactivity for inhibin. […] The study of lymph nodes of the same patients from which the primary tumors were studies was also analyzed by the same techniques. […]
# [1] = of 12 who completed the 60 day visit
substance,measurement,setting,value
"r-hCG: recombinant human chorionic gonadotropin, glycoprotein hormone composed of two non-covalently linked (α and β) subunits",patients with stable disease,metastatic breast cancer; 500 mcg three times per week,Six of the thirteen
same,reduction in liver metastases in partial responders,metastatic breast cancer; 500 mcg three times per week,greater than 50%
same,patients classified as partial responses,"metastatic breast cancer; 500 mcg three times per week, thirteen patients entered",Two
same,patients dropped out due to progressive disease,metastatic breast cancer; [1],four
same,patients remaining on active treatment in the maintenance phase,metastatic breast cancer; [1],eight
same,patients with significant increase in inhibin immunoreactivity in neoplastic cells,inhibin,nine out of the eighteen
same,primary breast lesions with overexpressed local production of inhibin,inhibin,50%
